# Experimental data taken from PubChem BioAssay AID652106 (National Center for Advancing Translational Sciences (NCATS), 2013).
# The entries are a selection whose mix differs from that of the whole data set. Activity calls are given as the source filed them. The call rests on the fitted dose curve; in most records, active means well fitted activation curve with a large enough effect; inconclusive means small, poorly fitted or top-dose-only effect; inactive means no such curve, though single readings can be large or run the other way.
# Experiment: qHTS of alpha-syn Inhibitors; further: % of control where 0% means no effect; nearly all actives have a fitted effect of over 65% in size
# Settings: Yeast expressing alpha-synuclein, BacTiter-Glo, 24 h; at 46.1 µM (top of the series)
# From the text: The goal of this project is to identify new chemical probes capable of reversing the toxicity associated with the Parkinson disease-related protein, alpha-synuclein. Compounds will be selected on their ability to restore growth in yeast cells expressing toxic levels of alpha-synuclein. These compounds will provide a complementary approach to deciphering the tangled mechanisms of toxicity and protection that we have uncovered through genome-wide genetic screens and are beginning to uncover in a large-scale proteomics analysis with mass spectroscopy. To this end, a miniaturized assay was developed to be screened against the Molecular Libraries Small Molecule Repository (MLSMR) to discover alpha-synuclein inhibitors. Please note that in the set-up this yeast-based assay compounds that inhibit as alpha-syn, have a read-out as activators. NIH Chemical Genomics Center [NCGC] NIH Molecular Libraries Probe Centers Network [MLPCN] […]
# Dispense 2.5 microL yeast galactose medium per 1536-well plate, pin compound, dispense 2.5 microL alpha-synuclein expressing yeast in galactose medium at OD600=0.02 (pregrown in raffinose medium to mid-log phase) per well, incubate for 24 hr at 30 deg C, and cell growth will be measured using 5 microL of Bactiter/Glo reagent to entire plate and read using Luminescence Protocol in ViewLux.
row,Structure (SMILES),growth rescue (activation)
1,CCC(=O)N(c1ccccc1)C1(COC)CCN(CCc2cccs2)CC1,inactive: -0.876%
2,CCC(=O)N(c1ccccc1)C1(COC)CCN(CCn2nnn(CC)c2=O)CC1,inactive: -6.96%
